Results from US11197857B2, “Combination therapy” (GlaxoSmithKline Intellectual Property Development Limited, priority 2016, dated 2021).

Chains of the proteins cited; added tags and fusions are not shown. Lines headed by an entry give the natural chain unless they say otherwise; changes in a name come on top.
UniProt Q9NQV7: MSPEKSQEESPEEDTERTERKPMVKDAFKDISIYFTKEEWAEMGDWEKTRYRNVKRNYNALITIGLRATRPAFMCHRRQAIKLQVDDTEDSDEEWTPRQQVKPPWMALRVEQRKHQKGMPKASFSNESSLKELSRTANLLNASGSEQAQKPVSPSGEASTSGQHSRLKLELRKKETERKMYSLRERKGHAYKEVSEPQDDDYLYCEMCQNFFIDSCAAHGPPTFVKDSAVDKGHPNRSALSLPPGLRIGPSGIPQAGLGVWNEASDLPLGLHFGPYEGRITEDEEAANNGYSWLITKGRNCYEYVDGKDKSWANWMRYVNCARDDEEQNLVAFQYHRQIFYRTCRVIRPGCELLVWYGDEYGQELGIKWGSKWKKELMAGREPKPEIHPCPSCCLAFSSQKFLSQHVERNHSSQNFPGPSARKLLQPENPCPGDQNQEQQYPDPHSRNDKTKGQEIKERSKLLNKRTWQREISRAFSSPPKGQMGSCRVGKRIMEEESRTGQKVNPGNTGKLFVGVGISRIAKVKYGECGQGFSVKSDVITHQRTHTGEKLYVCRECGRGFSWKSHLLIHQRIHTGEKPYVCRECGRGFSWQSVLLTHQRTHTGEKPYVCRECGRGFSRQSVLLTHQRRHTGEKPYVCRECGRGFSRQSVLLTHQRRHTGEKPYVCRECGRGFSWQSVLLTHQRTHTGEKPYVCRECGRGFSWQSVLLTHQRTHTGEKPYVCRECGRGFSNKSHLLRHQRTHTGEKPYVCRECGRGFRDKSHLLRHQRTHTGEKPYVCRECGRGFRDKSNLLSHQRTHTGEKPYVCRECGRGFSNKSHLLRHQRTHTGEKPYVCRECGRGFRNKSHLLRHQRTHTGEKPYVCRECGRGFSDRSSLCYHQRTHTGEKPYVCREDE
UniProt O96028: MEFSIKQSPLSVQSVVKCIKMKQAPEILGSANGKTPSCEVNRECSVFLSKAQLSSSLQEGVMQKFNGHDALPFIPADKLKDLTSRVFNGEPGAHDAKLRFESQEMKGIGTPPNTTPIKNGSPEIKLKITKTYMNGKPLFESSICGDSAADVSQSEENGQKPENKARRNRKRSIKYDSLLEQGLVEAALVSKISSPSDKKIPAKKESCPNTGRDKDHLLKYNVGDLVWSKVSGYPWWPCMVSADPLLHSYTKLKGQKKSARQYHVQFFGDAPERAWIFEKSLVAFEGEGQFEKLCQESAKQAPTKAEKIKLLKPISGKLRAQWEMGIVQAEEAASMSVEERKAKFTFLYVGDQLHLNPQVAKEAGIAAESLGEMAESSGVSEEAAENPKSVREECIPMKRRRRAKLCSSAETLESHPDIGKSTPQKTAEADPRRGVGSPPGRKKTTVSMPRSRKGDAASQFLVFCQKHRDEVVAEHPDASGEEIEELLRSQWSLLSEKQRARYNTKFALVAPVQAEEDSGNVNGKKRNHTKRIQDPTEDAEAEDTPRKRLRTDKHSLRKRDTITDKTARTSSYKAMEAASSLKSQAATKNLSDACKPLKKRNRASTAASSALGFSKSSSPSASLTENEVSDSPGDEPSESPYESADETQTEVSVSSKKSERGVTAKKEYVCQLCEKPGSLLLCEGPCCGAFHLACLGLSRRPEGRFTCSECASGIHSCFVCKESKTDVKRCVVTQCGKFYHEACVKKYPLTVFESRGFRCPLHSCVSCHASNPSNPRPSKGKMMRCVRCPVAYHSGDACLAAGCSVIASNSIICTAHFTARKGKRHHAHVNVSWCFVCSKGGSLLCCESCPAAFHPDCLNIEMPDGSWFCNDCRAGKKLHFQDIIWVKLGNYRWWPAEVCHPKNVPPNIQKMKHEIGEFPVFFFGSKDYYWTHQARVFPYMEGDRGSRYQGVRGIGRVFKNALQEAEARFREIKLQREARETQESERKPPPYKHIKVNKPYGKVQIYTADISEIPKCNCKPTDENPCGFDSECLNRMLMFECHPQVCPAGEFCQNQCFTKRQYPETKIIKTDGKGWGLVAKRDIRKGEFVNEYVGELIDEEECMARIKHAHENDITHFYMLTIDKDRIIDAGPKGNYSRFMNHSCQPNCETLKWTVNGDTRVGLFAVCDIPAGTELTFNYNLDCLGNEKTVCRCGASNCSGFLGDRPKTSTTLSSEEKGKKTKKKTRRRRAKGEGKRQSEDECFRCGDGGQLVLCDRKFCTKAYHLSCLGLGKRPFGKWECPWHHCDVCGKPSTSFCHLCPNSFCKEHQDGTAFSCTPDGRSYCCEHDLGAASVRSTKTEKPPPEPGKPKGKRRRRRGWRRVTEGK
UniProt Q96KQ7: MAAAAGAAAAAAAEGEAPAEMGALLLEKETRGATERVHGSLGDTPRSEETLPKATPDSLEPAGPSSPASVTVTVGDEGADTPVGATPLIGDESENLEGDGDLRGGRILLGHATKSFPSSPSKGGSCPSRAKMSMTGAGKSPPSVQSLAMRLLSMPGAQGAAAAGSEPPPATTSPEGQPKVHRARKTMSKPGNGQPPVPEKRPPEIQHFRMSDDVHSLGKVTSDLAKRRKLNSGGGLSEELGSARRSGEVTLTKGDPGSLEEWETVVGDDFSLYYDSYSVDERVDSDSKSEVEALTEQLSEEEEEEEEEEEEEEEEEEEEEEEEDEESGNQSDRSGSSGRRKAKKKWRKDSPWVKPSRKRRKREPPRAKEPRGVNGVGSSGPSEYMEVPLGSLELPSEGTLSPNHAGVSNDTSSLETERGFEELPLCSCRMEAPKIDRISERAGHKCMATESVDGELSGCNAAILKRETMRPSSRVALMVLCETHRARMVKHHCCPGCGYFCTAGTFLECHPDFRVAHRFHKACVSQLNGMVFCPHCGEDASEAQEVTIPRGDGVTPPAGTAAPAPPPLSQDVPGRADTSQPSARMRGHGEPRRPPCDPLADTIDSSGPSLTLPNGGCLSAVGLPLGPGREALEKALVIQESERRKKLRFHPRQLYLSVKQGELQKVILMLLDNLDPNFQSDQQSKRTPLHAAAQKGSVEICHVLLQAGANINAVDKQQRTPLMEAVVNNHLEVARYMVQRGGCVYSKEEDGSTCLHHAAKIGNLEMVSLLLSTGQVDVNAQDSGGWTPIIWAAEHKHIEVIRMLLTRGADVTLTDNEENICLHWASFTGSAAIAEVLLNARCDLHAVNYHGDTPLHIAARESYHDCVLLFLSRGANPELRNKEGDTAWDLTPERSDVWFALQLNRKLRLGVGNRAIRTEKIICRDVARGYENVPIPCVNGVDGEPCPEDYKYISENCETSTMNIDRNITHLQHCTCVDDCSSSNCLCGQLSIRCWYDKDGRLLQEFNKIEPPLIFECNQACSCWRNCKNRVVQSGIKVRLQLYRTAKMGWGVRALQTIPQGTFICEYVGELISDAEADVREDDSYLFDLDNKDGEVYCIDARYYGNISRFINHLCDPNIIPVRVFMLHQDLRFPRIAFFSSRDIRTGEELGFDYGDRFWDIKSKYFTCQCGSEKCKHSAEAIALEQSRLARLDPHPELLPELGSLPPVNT
UniProt Q9BYW2: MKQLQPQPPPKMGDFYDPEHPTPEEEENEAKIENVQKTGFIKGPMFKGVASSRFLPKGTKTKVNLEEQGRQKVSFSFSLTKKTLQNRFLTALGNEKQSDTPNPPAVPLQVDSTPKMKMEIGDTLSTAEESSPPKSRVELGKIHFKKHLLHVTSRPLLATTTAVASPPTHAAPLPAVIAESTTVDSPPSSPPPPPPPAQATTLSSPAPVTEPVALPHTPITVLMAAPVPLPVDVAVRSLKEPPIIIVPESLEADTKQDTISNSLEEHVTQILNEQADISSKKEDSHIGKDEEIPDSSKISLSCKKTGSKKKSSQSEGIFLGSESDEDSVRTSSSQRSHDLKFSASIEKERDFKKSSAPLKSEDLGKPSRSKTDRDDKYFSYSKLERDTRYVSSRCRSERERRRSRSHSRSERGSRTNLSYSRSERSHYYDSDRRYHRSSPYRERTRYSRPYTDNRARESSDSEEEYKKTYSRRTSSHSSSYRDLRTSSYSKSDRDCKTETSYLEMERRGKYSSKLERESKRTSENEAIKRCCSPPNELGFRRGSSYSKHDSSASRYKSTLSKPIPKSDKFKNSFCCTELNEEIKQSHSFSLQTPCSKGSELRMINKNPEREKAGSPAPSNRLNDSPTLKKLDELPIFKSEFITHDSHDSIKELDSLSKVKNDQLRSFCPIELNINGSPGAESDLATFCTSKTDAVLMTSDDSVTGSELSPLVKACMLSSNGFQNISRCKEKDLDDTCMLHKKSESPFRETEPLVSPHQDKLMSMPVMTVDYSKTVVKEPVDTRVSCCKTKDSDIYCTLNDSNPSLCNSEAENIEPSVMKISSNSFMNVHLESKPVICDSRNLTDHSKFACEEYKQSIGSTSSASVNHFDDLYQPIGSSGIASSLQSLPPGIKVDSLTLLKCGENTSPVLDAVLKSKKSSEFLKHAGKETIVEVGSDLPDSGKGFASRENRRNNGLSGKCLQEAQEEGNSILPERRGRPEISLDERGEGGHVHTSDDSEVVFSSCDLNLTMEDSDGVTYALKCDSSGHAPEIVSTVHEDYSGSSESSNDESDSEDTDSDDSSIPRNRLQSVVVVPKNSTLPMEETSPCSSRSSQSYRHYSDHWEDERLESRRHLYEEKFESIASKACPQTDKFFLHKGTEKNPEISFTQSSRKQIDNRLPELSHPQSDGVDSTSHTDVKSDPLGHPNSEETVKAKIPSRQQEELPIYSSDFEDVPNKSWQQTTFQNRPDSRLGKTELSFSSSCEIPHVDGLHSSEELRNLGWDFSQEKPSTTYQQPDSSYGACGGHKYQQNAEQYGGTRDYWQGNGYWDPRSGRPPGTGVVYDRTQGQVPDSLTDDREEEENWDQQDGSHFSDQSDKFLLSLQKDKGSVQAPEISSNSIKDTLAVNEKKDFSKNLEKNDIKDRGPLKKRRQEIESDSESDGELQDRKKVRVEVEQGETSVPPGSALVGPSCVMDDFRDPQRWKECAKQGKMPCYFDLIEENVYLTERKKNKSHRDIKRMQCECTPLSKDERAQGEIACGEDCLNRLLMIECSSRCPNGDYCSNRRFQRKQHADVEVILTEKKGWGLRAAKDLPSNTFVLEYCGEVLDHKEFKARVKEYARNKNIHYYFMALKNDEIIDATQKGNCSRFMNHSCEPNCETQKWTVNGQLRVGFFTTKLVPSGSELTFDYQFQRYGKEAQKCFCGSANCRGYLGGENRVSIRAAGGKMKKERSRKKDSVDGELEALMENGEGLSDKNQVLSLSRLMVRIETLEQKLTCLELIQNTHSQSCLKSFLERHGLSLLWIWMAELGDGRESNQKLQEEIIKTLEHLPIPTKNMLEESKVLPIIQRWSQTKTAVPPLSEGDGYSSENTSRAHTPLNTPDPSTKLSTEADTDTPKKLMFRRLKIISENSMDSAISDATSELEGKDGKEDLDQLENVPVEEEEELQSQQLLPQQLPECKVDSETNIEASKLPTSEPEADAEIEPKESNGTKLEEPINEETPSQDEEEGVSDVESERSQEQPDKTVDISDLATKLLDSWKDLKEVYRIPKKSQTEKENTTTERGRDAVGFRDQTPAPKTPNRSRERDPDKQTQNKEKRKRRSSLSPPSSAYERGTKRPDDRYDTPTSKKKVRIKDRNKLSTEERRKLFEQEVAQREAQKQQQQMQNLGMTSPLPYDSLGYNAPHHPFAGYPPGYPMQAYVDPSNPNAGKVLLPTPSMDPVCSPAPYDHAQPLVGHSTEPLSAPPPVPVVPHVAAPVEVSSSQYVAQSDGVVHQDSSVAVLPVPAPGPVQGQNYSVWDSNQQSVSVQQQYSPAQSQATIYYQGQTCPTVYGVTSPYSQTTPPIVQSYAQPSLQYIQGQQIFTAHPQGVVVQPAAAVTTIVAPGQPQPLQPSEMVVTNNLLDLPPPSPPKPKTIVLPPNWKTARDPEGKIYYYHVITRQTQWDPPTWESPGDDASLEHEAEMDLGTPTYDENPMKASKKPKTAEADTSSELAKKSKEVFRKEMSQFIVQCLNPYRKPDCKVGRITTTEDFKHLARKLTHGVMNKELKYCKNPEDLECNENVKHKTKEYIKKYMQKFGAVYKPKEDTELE
UniProt Q9NQR1: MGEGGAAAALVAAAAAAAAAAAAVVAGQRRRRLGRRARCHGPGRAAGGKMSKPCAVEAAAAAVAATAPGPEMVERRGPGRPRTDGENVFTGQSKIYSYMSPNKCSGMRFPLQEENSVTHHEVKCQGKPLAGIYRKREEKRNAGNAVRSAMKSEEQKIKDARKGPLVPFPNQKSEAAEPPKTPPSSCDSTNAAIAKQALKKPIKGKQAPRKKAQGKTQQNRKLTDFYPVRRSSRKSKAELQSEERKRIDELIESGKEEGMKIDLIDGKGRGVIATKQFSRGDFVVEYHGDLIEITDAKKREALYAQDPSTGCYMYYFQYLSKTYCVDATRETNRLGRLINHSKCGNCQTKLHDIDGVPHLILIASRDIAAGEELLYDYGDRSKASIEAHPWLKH

Key:
[1] = biological target: T1, PRDM9 (Homo sapiens, UniProt Q9NQV7); conditions: 10 μM; SAM 1 μM; Histone H3
[2] = biological target: T1, PRDM9; experiment: biochemical; conditions: read-out: Average % Inhibition, 10 μM; SAM 1 μM; Histone H3
[3] = biological target: NSD2 (Homo sapiens, UniProt O96028); experiment: biochemical; conditions: read-out: Average % Inhibition
[4] = biological target: MLL3 Complex (Homo sapiens, UniProt Q8NEZ4); experiment: biochemical; conditions: read-out: Average % Inhibition
[5] = biological target: EZH1 Complex (Homo sapiens, UniProt Q92800); experiment: biochemical; conditions: read-out: Average % Inhibition
[6] = biological target: SMYD2 (Homo sapiens, UniProt Q9NRG4); experiment: biochemical; conditions: read-out: Average % Inhibition
[7] = biological target: EZH2 Complex (Homo sapiens, UniProt Q15910); experiment: biochemical; conditions: read-out: Average % Inhibition
[8] = biological target: SET1B Complex (Homo sapiens, UniProt Q9UPS6); experiment: biochemical; conditions: read-out: Average % Inhibition
[9] = biological target: G9a (Homo sapiens, UniProt Q96KQ7); experiment: biochemical; conditions: read-out: Average % Inhibition
[10] = biological target: SET7 (Homo sapiens, UniProt Q8WTS6); experiment: biochemical; conditions: read-out: Average % Inhibition
[11] = biological target: SETD2 (Homo sapiens, UniProt Q9BYW2); experiment: biochemical; conditions: read-out: Average % Inhibition
[12] = biological target: Dot1L (Homo sapiens, UniProt Q8TEK3); experiment: biochemical; conditions: read-out: Average % Inhibition
[13] = biological target: GLP (Homo sapiens, UniProt Q9H9B1); experiment: biochemical; conditions: read-out: Average % Inhibition
[14] = biological target: MLL1 Complex (Homo sapiens, UniProt Q03164); experiment: biochemical; conditions: read-out: Average % Inhibition
[15] = biological target: SUV39H1 (Homo sapiens, UniProt O43463); experiment: biochemical; conditions: read-out: Average % Inhibition
[16] = biological target: SET8 (Homo sapiens, UniProt Q9NQR1); experiment: biochemical; conditions: read-out: Average % Inhibition
[17] = biological target: SUV39H2 (Homo sapiens, UniProt Q9H5I1); experiment: biochemical; conditions: read-out: Average % Inhibition

Q: `CCOCC1(COCC)CCC(c2n[nH]cc2CN(C)CCNC)CC1` [Compound A] was tested. Which “Average % Inhibition” value [1] did it give?
A: Its value is 17.99%.

Q: And the inhibition at 10 µM [2]?
A: The inhibition at 10 µM was 18%.

Q: What about the inhibition at 10 µM [3] of the same compound?
A: Its inhibition at 10 µM is 15%.

Q: And the inhibition at 10 µM [4]?
A: The inhibition at 10 µM was 13.7%.

Q: And the inhibition at 10 µM [5]?
A: Its inhibition at 10 µM is 12%.

Q: And the inhibition at 10 µM [6]?
A: The inhibition at 10 µM was 9.26%.

Q: What about the inhibition at 10 µM [7] of the same compound?
A: Its inhibition at 10 µM is 8.17%.

Q: What about the inhibition at 10 µM [8] of the same compound?
A: Its inhibition at 10 µM is 5.96%.

Q: What about the inhibition at 10 µM [9] of the same compound?
A: Its inhibition at 10 µM is 3.72%.

Q: What about the inhibition at 10 µM [10] of the same compound?
A: The inhibition at 10 µM was 3.47%.

Q: And the inhibition at 10 µM [11]?
A: The inhibition at 10 µM was 3.15%.

Q: And the inhibition at 10 µM [12]?
A: The inhibition at 10 µM was 2.75%.

Q: And the inhibition at 10 µM [13]?
A: Its inhibition at 10 µM is 1.86%.

Q: What about the inhibition at 10 µM [14] of the same compound?
A: The inhibition at 10 µM was 0.27%.

Q: And the inhibition at 10 µM [15]?
A: Its inhibition at 10 µM is 0%.

Q: And the inhibition at 10 µM [16]?
A: Its inhibition at 10 µM is 0%.

Q: What about the inhibition at 10 µM [17] of the same compound?
A: The inhibition at 10 µM was 0%.
